Experiments:
[1] = species on record: Homo sapiens; assay: Selectivity ratio of EC50 for GAL4-fused human PXR to EC50 for GAL4-fused human RORc
[2] = species on record: Homo sapiens; assay: Selectivity ratio of EC50 for GAL4-fused human LXRbeta to EC50 for GAL4-fused human RORc
[3] = species on record: Homo sapiens; assay: Selectivity ratio of EC50 for GAL4-fused human LXRalpha to EC50 for GAL4-fused human RORc
[4] = species on record: Homo sapiens; assay: Selectivity ratio of EC50 for GAL4-fused human FXR to EC50 for GAL4-fused human RORc

Measured: Ratio EC50

O=C(O)c1ccc(-c2nc(C(=O)c3c(Cl)cccc3C3CC3)n3c2CCCC3)c(F)c1
> 1000: all assays above

O=C(O)c1ccc(-c2nc(C(=O)c3c(Cl)cccc3C(F)(F)F)n3ccccc23)c(F)c1
> 1000: all assays above

O=C(O)c1ccc(-c2nc(C(=O)c3c(Cl)cccc3C(F)(F)F)n3c2CCCC3)c(F)c1
> 1000: all assays above

O=C(O)c1ccc(-c2nc(C(=O)c3c(Cl)cccc3C(F)(F)F)n3ccccc23)cc1O
> 1000: all assays above

Reference: ChEMBL document CHEMBL3596163, “Discovery of imidazo[1,5-a]pyridines and -pyrimidines as potent and selective RORc inverse agonists” (Bioorg Med Chem Lett, 2015)
